Apparent affinities of Ab-14 variants for a coronavirus HR2 peptide

From the AlphaSeq antibody data of Li et al. 2023 (doi:10.1038/s41467-023-39022-2), copy in the FLAb collection.

Binding partner: SARS-CoV-2 spike HR2 peptide, sequence PDVDLGDISGINAS.

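The parent was found by panning a naive human phage display library on the peptide. Designed CDR sequences, proposed from the first random library and measured here. Group labels follow the data file (Ctrl: baseline library sampled from a position-specific scoring matrix, with some repeated check sequences; GP: Gaussian process model; HC: hill climbing; Gen: genetic algorithm; Gibbs: Gibbs sampling; a sequence that several methods proposed may carry one label only). AlphaSeq pools MATa yeast showing the antibodies with MATalpha yeast showing the peptide. Mating (16 h, 30 °C) was followed by selection of diploids and sequencing of their barcodes. Read counts were normalised to the haploid input and turned into Kd by a linear fit to BCL2-family pairs of known affinity, for each replicate. Each pool was mated in six replicate cultures.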

Parent scFv Ab-14: VH joined to VL by a 15-residue (Gly4Ser)3 linker. Changes lie in the light chain CDRs alone.
VH: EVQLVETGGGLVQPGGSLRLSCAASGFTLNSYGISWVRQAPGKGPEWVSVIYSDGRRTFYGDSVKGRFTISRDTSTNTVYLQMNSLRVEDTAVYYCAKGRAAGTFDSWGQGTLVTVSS
VL: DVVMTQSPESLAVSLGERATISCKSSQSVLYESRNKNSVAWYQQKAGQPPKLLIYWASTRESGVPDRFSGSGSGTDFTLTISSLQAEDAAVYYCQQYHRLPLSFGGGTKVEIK

Substitutions are numbered in sequence along the VL above, starting at 1 (not Kabat).
This list holds designs with at most six substitutions.
Values are log10 of the apparent Kd in nM; lower means stronger binding.
Averages over replicates are reported, and they cover detected replicates only.
A pair that was not seen in any replicate is written "not detected"; this usually means weak binding, but a binder can also be missed.
The authors averaged sequences with at least three values out of six and counted those with two or fewer as poor binders.
Values of this round are not directly comparable with the first-round values of the same sequences.
Of ten entries with the parent sequence, four were seen in most replicates (averages 0.34 to 2.37), three in one and three in none, so single entries are noisy.
Background: pairings of all light chain designs with three empty control strains gave a value in 4% of cases (median 2.64, 5th percentile 1.59). Values in that range, when seen in few replicates, are hard to tell from nonspecific mating.

| changes | group | mean log10 Kd (nM) | replicates with signal |
|---|---|---|---|
| S25W L30D W56N A57G S62A | GP_Gibbs | 0.27 | 6 of 6 |
| S25F Y31G E32D K36A W56G | Ctrl | 0.49 | 6 of 6 |
| S25V L30K Y31F W56D S62R | GP_HC | 0.75 | 6 of 6 |
| L30R S33W N35F | Ctrl | 2.06 | 1 of 6 |
| S26Q K36F R99M | Ctrl | 2.53 | 2 of 6 |
| S25L S26Q V29E W56E T59Q | GP_Gen | 0.95 | 6 of 6 |
| K24S V29L V39I S103I | Ctrl | not detected | 0 of 6 |
| S25C S28P Y31N | Ctrl | 2.87 | 3 of 6 |
| K36L S62Q | Ctrl | 1.60 | 1 of 6 |
| Q27P V29E W56E | GP_Gen | 0.87 | 6 of 6 |
| S25V S33E W56N E61M | GP_Gen | 0.20 | 6 of 6 |
| S25M Y31M S33M K36G W56N | GP_Gibbs | 0.21 | 6 of 6 |
| S26E Y31G S38N T59E H98S | Ctrl | -0.13 | 6 of 6 |
| W56A H98S | Ctrl | not detected | 0 of 6 |
| V29K L30C | Ctrl | not detected | 0 of 6 |
| S25L S26E V29M L30E W56N | GP_Gen | -0.28 | 6 of 6 |
| S25L S26W W56H S62D | GP_HC | 1.62 | 6 of 6 |
| S25V S26L E32G N35D W56H S62D | GP_HC | 0.33 | 6 of 6 |
| Q27H W56G | Ctrl | 1.21 | 6 of 6 |
| S25T W56Y S58T Q95Y R99D | Ctrl | not detected | 0 of 6 |
| K24Q V29Q S62T Q96S | Ctrl | not detected | 0 of 6 |
| Q27H L30P W56T L100M | Ctrl | 1.56 | 5 of 6 |
| K36P S62Y L102E | Ctrl | not detected | 0 of 6 |
| S25L W56E E61Y | GP_Gen | -0.27 | 6 of 6 |
| S25L V29E N35M W56N T59K | GP_Gen | 0.91 | 6 of 6 |
| Q27I V29Y R34A W56A | GP_HC | 0.46 | 6 of 6 |
| Q27I V29G N35M W56E S62E | GP_HC | -0.03 | 6 of 6 |
| K24C S25L S26M W56H T59L S62D | GP_HC | 0.44 | 6 of 6 |
| S25L Q27P V29F W56D E61L S62E | GP_Gibbs | -0.28 | 6 of 6 |
| L30I H98D | Ctrl | not detected | 0 of 6 |
| S25L S26R V29Q W56Q S103T | GP_HC | -0.25 | 6 of 6 |
| S25L S26E L30Q Y31M W56N | GP_Gibbs | -0.12 | 6 of 6 |
| Y97L L102I | Ctrl | not detected | 0 of 6 |
| Q27E S38N A40W A57S S58K | Ctrl | 2.11 | 4 of 6 |
| S25K S26R V39I W56D E61C Q95A | Ctrl | 1.31 | 6 of 6 |
| L30A K36A W56D | GP_HC | -0.23 | 6 of 6 |
| S25L V29C E32D W56N | GP_HC | -0.17 | 6 of 6 |
| Q27I V39I E61Y | Ctrl | not detected | 0 of 6 |
| S26M Q27K S28K Y31M R34E V39I | Ctrl | 2.30 | 5 of 6 |
| V29C | Ctrl | 2.35 | 4 of 6 |
| S25L W56E T59Q S62E | GP_Gen | -0.12 | 6 of 6 |
| S25F S33D N35T K36S W56N | GP_HC | -0.08 | 6 of 6 |
| W56D T59I E61R | Ctrl | 0.83 | 6 of 6 |
| S25M S26E S28G W56E T59V | GP_HC | -0.38 | 6 of 6 |
| S25L V29G Y31T E61R | Ctrl | 1.70 | 6 of 6 |
| S25I R34D N35L | Ctrl | 0.76 | 6 of 6 |
| L30D Y31N | Ctrl | 1.50 | 6 of 6 |
| S25V Q27I V29Y Y31L W56E S58K | GP_HC | -0.26 | 6 of 6 |

The opening 7 entries, copied out:

| changes | group | mean log10 Kd (nM) | replicates with signal |
|---|---|---|---|
| S25W L30D W56N A57G S62A | GP_Gibbs | 0.27 | 6 of 6 |
| S25F Y31G E32D K36A W56G | Ctrl | 0.49 | 6 of 6 |
| S25V L30K Y31F W56D S62R | GP_HC | 0.75 | 6 of 6 |
| L30R S33W N35F | Ctrl | 2.06 | 1 of 6 |
| S26Q K36F R99M | Ctrl | 2.53 | 2 of 6 |
| S25L S26Q V29E W56E T59Q | GP_Gen | 0.95 | 6 of 6 |
| K24S V29L V39I S103I | Ctrl | not detected | 0 of 6 |